Literature values, collected in article PMC11984388, “A brain-accessible peptide modulates stroke inflammatory response and neurotoxicity by targeting BDNF-receptor TrkB-T1 specific interactome” (Theranostics, 2025).

Conditions: phase 3 clinical trial for acute ischemic stroke; cited from earlier work

## nerinetide
  Plasma half-life: below 20 min
